{"source": "patent US6187807A", "about": "“Methods of use and compositions of (S) (-)-amisulpride” (Sanofi-Synthelabo, priority 1999, dated 2001)", "key": {"[1]": {"system": "catalepsy", "type": "in vivo", "experimental": "The propensity of the drugs to induce extrapyramidal side effects was assessed by measuring their potential to induce catalepsy and to antagonize apomorphine-induced stereotyped behaviour and the sedative potential of the drugs was evaluated by their capacity to decrease spontaneous locomotor activity in the rat.\nThe occurrence of catalepsy in rats was assessed using the four-cork test. This measurement was performed by placing each paw of the rat on a 2.5 cm high cork (diameter 1.2 cm). Distance between contralateral corks was 8 cm and between ipsilateral corks 13 cm. Catalepsy time was measured for a maximum of 2 min at 2 hours, and 4 hours after ip drug treatment."}, "[2]": {"system": "D2 and D3 receptors", "settings": "in words; Schoemaker et al. and Perrault et al. 1997; cited from earlier work"}}, "data": [{"smiles": "CCN1CCCC1CNC(=O)c1cc(S(=O)(=O)CC)c(N)cc1OC", "note": "(racemic) [(R,S)-amisulpride]", "values": [{"measurement": "Potency of both compounds in models predictive of extrapyramidal and sedative side effects", "setting": "[1]; (S)(-)-amisulpride compared with (R,S)-amisulpride, in words", "result": "quite similar"}, {"measurement": "Induction of catalepsy, in words", "setting": "[1]; at doses up to 100 mg/kg, ip", "result": "neither compound induced catalepsy"}, {"measurement": "Receptor blockade profile", "setting": "[2]", "result": "preferential blockade of D2 and D3 receptors with presynaptic and limbic selectivity"}]}]}
